Results from paper PMC5111430 (ACS chemical biology, 2016).

Tested on: WT4R0N tau
Assay type: cell-based, human
Settings: HEK293T, transient WT4R0N tau, increasing concentrations, 24 h

SMILES: CCN1/C(=C/C(C)=C/c2sc3ccccc3[n+]2CC)Sc2ccccc21.[I-] [carbocyanine, 3,3'-Diethyl-9-methylthiacarbocyanine iodide]
- effect on tau levels (tau aggregation inhibitor scaffolds): lowered tau levels
